Substitutions are numbered along the chain they refer to.
B1: 1460_G14 (PGG14) (antibody, V domains shown)
VH: QVLLVQSGTEVKKPGSSVKVSCQASGGAFSSYAFSWVRQAPGQGLEWMGMITPVFGETKYAPRFQGRLTLTAEESLSTTYMELRSLTSDDTAFYYCTRDRRVVPMATDNWLDPWGQGTLVTVSS
VL: DIQLTQSPSSLSASVGDRVTVTCRASQTIHTYLNWYQQIPGKAPKLLIYGASTLQSGVPSRFSGSGSGTDFTLTINSLQPEDFATYYCQQSYSTPRTFGQGTRLDIKR
B2: 1456_P20 (PG20) (antibody, V domains shown)
VH: QVRLVQSGPEVKKPGSSVTVSCQASGGTFSSYAFTWVRQAPGQGLEWLGMVTPIFGEAKYSQRFEGRVTITADESTSTTSIELRGLTSEDTAIYYCARDRRAVPIATDNWLDPWGQGTLVTVSS
VL: B1 VL with T20S, V21I, H30N, T31N, I39T, T53N, S56N, N76S, Y92F

Biological target: aMLV envelope
Experiment: cell-based or functional assay

Binder | neutralization IC50
B1 | > 50 µg/mL
B2 | > 50 µg/mL
